Test results as given in publication PMC7723054.
The list shows a part of the results.

T1: LIN28A (human?, UniProt Q9H9Z2 1-209)
T1 sequence: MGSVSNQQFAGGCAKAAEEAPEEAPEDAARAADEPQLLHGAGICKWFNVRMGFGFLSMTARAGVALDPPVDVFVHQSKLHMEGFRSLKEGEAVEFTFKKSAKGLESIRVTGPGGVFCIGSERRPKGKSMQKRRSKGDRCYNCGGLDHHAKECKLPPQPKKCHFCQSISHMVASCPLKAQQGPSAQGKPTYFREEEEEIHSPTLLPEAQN

T2: CIRBP (Homo sapiens, UniProt Q14011 1-172)
T2 sequence: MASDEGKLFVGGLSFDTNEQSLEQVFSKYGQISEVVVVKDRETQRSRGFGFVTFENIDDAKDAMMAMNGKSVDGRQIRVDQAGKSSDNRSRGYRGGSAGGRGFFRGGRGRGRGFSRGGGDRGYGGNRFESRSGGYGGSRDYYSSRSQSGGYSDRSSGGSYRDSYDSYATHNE

T3: DHX36 (Homo sapiens, UniProt Q9H2U1 1-1008)
T3 sequence: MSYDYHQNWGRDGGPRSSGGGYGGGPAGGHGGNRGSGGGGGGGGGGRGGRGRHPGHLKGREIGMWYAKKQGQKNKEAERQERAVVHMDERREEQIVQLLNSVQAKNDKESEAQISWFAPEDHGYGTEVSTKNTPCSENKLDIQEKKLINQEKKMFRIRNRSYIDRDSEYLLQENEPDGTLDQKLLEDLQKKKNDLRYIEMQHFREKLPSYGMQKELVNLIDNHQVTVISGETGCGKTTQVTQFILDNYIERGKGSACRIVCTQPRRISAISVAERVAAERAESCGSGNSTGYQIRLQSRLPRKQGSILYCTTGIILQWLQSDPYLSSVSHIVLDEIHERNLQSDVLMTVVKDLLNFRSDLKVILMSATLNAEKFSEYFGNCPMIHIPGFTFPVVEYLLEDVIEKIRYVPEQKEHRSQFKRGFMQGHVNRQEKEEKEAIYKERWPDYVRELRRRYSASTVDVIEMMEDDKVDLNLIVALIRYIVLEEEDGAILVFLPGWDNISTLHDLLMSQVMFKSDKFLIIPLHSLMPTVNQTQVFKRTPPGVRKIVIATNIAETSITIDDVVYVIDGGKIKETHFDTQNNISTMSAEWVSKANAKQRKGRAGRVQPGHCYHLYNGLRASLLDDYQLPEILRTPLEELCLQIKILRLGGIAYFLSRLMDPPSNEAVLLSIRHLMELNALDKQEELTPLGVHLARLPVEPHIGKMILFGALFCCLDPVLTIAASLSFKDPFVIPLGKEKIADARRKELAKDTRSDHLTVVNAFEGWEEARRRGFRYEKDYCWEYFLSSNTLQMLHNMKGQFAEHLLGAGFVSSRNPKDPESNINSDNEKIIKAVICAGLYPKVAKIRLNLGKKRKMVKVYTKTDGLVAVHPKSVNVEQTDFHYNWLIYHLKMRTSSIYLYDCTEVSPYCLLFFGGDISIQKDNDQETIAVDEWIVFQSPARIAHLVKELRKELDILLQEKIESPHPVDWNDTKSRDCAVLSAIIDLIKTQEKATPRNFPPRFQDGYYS

B1: hsa-mir-4790 (structured_RNA)
RNA: GGGAAGCUGGUACAUCUGACAAUUAGGAGGUGUACGAAGUUUCAGCUUCAUGUUCACUGAAAGGUAGAUUUUAAAAACAUGAAGCUGAAGCUUCGUGCAC
B2: hsa-mir-5010 (structured_RNA)
RNA: GGGAUGUGAGUUGGACCUACUCUCACCGGGUGUACGAAGUUUCAGCAAAAUUCAUGGCCUACAGCUGCCUCUUGCCAAACUGCACUGGAUUUUGCUGAAGCUUCGUGCAC
B3: PARIS_ID14 (structured_RNA)
RNA: GGGACCUGUCAACUUGACUACGUAAGGCGGUGUACGAAGUUUCAGCGCUGGUGAUGCCCAACCCAGUGCUCUGCACCCAGGUCACACUGUGGCUUUGUCCUCUGCUUAUGCCUGCAUUGCAGCGCUGAAGCUUCGUGCAC
B4: hsa-mir-6794 (structured_RNA)
RNA: GGGCGGUUGAUGGCCUAACGAACAUGCAGGUGUACGAAGUUUCAGCUGAGCAGGCCCAGAACCCAGCUCGUGCUCAGCUGAAGCUUCGUGCAC
B5: hsa-mir-3169 (structured_RNA)
RNA: GGGAAACAUGGGCGGCACUCUUAAAGGUGGUGUACGAAGUUUCAGCAUAGCACAAAGUCUUAUGGUACUGUGCUGAAGCUUCGUGCAC
B6: hsa-mir-4803 (structured_RNA)
RNA: GGGACCACAAGGGUAGAGGUGAUCUCAUGGUGUACGAAGUUUCAGCUUGAAUCACACACACAUUUCAAGCUGAAGCUUCGUGCAC
B7: hsa-mir-6851 (structured_RNA)
RNA: GGGAAUCAAUGAGUGGGCCACGGCAACUGGUGUACGAAGUUUCAGCGCCAGCAACCUGAUUACCCCUCUUUGGCGCUGAAGCUUCGUGCAC
B8: hsa-mir-637 (structured_RNA)
RNA: GGGAAUAACACUGGCGGAAUCUCCAAGCGGUGUACGAAGUUUCAGCCACUGCAGUUACCCUCCCCUCGGCGUUACUGAGCACUGGCUGAAGCUUCGUGCAC
B9: hsa-mir-4712 (structured_RNA)
RNA: GGGAGAUCAUUUGUUCAUUCGCCGCCCCGGUGUACGAAGUUUCAGCCAUUUCCUUCAUGAUUAGGAAUACUACUUUGAAAUGGCUGAAGCUUCGUGCAC
B10: NEAT1_ParasoR_ID27 (structured_RNA)
RNA: GGGAGGCUUUACGUAGGGUGGACAGACCGGUGUACGAAGUUUCAGCUCUGAAUCUCCUAUCCAAUACAAAAACUAGGACAAUACAGAGCUGAAGCUUCGUGCAC
B11: G4_(UGGGGU)8 (structured_RNA)
RNA: GGGAAGUGCGGCUAAAUGUUACCGACACGGUGUACGAAGUUUCAGCUGGGGUUGGGGUUGGGGUUGGGGUUGGGGUUGGGGUUGGGGUUGGGGUGCUGAAGCUUCGUGCAC

Experiments:
Test in all cases: FOREST: bead pull-down of RNA structure library v1, barcode microarray; U1A/LIN28A: 20 mM HEPES pH 7.5, 80 mM KCl, 20 mM NaCl, 10% glycerol, 2 mM DTT, 0.1 ug/uL BSA, 4 C; BG4/CIRBP/DHX36: 10 mM Tris-HCl pH 7.5, 100 mM KCl (or LiCl),; high values mean tight binding
U1A = U1A (Homo sapiens, UniProt P09012)
LIN28A = biological target: T1, LIN28A
CIRBP = biological target: T2, CIRBP
DHX36 = biological target: T3, DHX36

Binder	binding signal (U1A)	binding signal (LIN28A)	binding signal (CIRBP)	binding signal (DHX36)
B1	1.64 z-score	-0.0826 z-score	-0.559 z-score	0.0889 z-score
B2	1.64 z-score	-0.75 z-score	0.02 z-score	-0.805 z-score
B3	1.63 z-score	-0.532 z-score	-0.459 z-score	-0.225 z-score
B4	1.62 z-score	-0.28 z-score	-1.61 z-score	0.804 z-score
B5	1.6 z-score	-1.03 z-score	-0.326 z-score	-0.914 z-score
B6	1.6 z-score	0.355 z-score	0.207 z-score	0.963 z-score
B7	1.59 z-score	-0.425 z-score	-0.324 z-score	-0.508 z-score
B8	3 z-score	0.254 z-score	0.201 z-score	0.877 z-score
B9	1.59 z-score	0.292 z-score	-0.2 z-score	-0.165 z-score
B10	1.32 ± 0.383 z-score	-0.584 ± 0.701 z-score	0.256 ± 0.601 z-score	0.0826 ± 0.568 z-score
B11	1.59 z-score	1.91 z-score	5.75 z-score	7.41 z-score
